# Laboratory results published in EP4778941A1 (Jiangsu Hengrui Pharmaceuticals Co., Ltd., dated 2025).
# Amino acid sequences for entries named in this document (tags omitted). Residues count along the entry.
# UniProt P08581, 25-932 limits assumed: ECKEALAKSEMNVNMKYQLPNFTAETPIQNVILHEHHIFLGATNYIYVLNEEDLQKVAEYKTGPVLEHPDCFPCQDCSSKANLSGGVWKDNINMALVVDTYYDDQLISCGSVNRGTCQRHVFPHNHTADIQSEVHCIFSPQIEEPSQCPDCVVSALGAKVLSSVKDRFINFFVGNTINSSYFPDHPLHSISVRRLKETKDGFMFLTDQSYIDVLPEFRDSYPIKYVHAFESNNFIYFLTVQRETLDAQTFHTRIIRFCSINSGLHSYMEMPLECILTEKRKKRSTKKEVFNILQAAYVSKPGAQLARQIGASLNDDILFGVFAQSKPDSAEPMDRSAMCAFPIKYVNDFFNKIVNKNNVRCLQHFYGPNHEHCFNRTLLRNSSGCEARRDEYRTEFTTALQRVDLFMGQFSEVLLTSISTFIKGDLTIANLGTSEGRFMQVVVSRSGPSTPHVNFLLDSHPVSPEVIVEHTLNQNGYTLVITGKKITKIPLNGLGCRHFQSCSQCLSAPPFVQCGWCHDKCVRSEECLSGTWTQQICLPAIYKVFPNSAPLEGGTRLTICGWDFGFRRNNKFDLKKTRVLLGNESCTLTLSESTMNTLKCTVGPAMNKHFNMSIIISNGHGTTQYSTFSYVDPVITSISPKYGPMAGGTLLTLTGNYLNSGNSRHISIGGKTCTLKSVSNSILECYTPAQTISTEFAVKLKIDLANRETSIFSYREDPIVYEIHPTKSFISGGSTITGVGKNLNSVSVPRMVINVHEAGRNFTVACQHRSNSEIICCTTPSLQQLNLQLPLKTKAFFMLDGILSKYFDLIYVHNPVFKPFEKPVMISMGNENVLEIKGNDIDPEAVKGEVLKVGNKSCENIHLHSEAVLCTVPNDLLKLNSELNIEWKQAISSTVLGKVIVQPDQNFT
# B1: Anti-HER3/MET antibody-drug conjugate ADC-1 (bispecific antibody)
# heavy 1: not shown
# light 1: DIQMTQSPSSVSASVGDRVTITCRASQGINTWLAWYQQKPGKAPKLLIYAASSLKSGVPSRFSGSGSGADFTLTISSLQPEDFATYYCQQANSFPLTFGGGTKVEIKGGGGSGIPPKIECLPIDISIDEGKVLTVASAFTGEPTPEVTWSTGGRKIHSQEQGRFHIENTDDSTTLTIKDVQKQDGGLYTLTLRNEFGSDSATVNIHIRSI
# heavy 2: QVQLVQSGGGLVQPGRSLRLSCAASGFTFDDYAMHWVRQAPGKGLEWVSGISWNSGSIGYADSVKGRFTISRDNAKNSLYLQMNSLRAEDTALYYCAKEGLPGLDYWGQGTLVTVSSASTKGPSVFPLAPSSKSTSGGTAALGCLVKDYFPEPVTVSWNSGALTSGVHTFPAVLQSSGLYSLSSVVTVPSSSLGTQTYICNVNHKPSNTKVDKKVEPKSCDKTHTCPPCPAPELLGGPSVFLFPPKPKDTLMISRTPEVTCVVVDVSHEDPEVKFNWYVDGVEVHNAKTKPREEQYNSTYRVVSVLTVLHQDWLNGKEYKCKVSNKALPAPIEKTISKAKGQPREPQVCTLPPSREEMTKNQVSLSCAVKGFYPSDIAVEWESNGQPENNYKTTPPVLDSDGSFFLVSKLTVDKSRWQQGNVFSCSVMHEALHNHYTQKSLSLSPGK
# light 2: DIQMTQSPSSLSASIGDRATITCRASQHVGTYLNWYQQKPGKTPKLLISGAANLQSGVPSRFSGSGSGTDFTLTISSLQPEDFATYYCQQSYNTPPFSFGQGTKVEIKRTVAAPSVFIFPPSDEQLKSGTASVVCLLNNFYPREAKVQWKVDNALQSGNSQESVTEQDSKDSTYSLSSTLTLSKADYEKHKVYACEVTHQGLSSPVTKSFNRGEC
# modifications: compound 9-A on reduced cysteines, positions not given; denaturing MS main peak HC2+3drug; no drug by denaturing MS (main peak LC1); compound 9-A on a reduced cysteine, position not stated; denaturing MS main peak LC2+1drug; compound 9-A (exatecan derivative linker-drug) on reduced cysteines, positions not given; denaturing MS main peak HC1+2drug
# notes: target DAR 6, found DAR 5.90
# Tests used:
# [1] = target: T1, His-tagged human MET antigen (human, UniProt P08581 25-932); test: SPR, Biacore 8K, protein A chip; ADC captured, His-tagged antigen 6.25-400 nM as analyte; 1:1 Langmuir
# T1 construct: Soluble antigen used as analyte in SPR; not shown: His tag
# [2] = target: T2, His-tagged human HER3 antigen (human, UniProt P21860 20-643); test: as above
# T2 construct: Soluble antigen used as analyte in SPR; not shown: His tag
binder,measurement,setting,value
B1,Kd,[1],14.1 nM
same,Kd,[2],19 nM
